Results taken from ChEMBL document CHEMBL1136740, “New active series of growth hormone secretagogues” (J Med Chem, 2003).

How the values were obtained:
[1] = Stimulating GH secretion in dogs after oral administration at dose of 1 mg/kg
[2] = system: Rattus norvegicus; experiment: Ratio of GH release stimulated by 300 ug/kg of compound to that of GH release stimulated by 300 ug/kg of hexarelin in infant rat (sc injection); format: functional
How it was run: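 Male 10-day-old Sprague-Dawley pups, about 25 g, eight per group. Dosed sc at 300 µg/kg, with solvent as DMSO at final 1:300 dilution. Killed by decapitation 15 min later; trunk-blood plasma GH measured by RIA against the NIDDK rat standard, in ng/mL. Response compared with hexarelin at the same dose.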

Row | SMILES | GH peak [1] [µg/L] | Ratio [2]
1 | CCNC(=O)N[C@@H](Cc1c[nH]c2ccccc12)NC(=O)[C@@H](Cc1c[nH]c2ccccc12)NC(=O)C(C)(C)N | 0.4 | 1.4
2 | CNC(C)(C)C(=O)N[C@H](Cc1c[nH]c2ccccc12)C(=O)N(C)[C@H](Cc1c[nH]c2ccccc12)NC(C)=O | 5.5 | 1.45
3 | CC(C)(N)C(=O)N[C@H](Cc1c[nH]c2ccccc12)C(=O)N[C@H](Cc1c[nH]c2ccccc12)NC(=O)C1CCCCN1 (stereo partly specified) | 0.5 | 1.34
